Results published in ChEMBL document CHEMBL1154594, “Delta agonist hydroxy bioisosteres: the discovery of 3-((1-benzylpiperidin-4-yl){4-[(diethylamino)carbonyl]phenyl}amino)benzamide with improved delta agonist activity and in vitro metabolic stability” (Bioorg Med Chem Lett, 2009).

Protein sequences, listed by entry. Tags and fused reporters are not part of them.
UniProt P41143, whole entry: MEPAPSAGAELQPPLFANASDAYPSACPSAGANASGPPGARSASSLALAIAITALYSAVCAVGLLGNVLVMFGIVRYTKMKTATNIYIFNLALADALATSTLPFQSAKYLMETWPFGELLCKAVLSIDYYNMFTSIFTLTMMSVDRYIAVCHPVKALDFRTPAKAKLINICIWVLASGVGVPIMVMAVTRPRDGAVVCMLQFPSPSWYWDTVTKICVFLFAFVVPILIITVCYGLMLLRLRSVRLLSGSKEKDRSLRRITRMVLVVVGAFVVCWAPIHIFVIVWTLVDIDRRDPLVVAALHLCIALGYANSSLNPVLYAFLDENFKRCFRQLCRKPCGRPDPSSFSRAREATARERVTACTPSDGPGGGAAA

Legend:
Homo sapiens [1] = species: Homo sapiens; experiment: Selectivity ratio of Ki for human cloned kappa opioid receptor to Ki for human cloned delta opioid receptor
Homo sapiens [2] = species: Homo sapiens; experiment: Selectivity ratio of Ki for human cloned mu opioid receptor to Ki for human cloned delta opioid receptor
[3] = biological target: Delta-type opioid receptor (Homo sapiens) (UniProt P41143); experiment: Agonist activity at human delta opioid receptor by GTP[gamma]35S binding assay relative to SNC80

Row | SMILES | Ratio Ki (Homo sapiens [1]) | Ratio Ki (Homo sapiens [2]) | Emax [3]
1 | CCN(CC)C(=O)c1ccc(N(c2cccc(NC(=O)OC)c2)C2CCN(Cc3ccccc3)CC2)cc1 | 1400 | 183 | 102%
2 | CCN(CC)C(=O)c1ccc(N(c2cccc(CO)c2)C2CCN(Cc3ccccc3)CC2)cc1 | 570 | 326 | 103%
3 | CCN(CC)C(=O)c1ccc(N(c2cccc(N)c2)C2CCN(Cc3ccccc3)CC2)cc1 | 2110 | 1430 | 109%
4 | CCN(CC)C(=O)c1ccc(N(c2cccc(C(=O)OC)c2)C2CCN(Cc3ccccc3)CC2)cc1 | 92 | 118 | 
5 | CCN(CC)C(=O)c1ccc(N(c2cccc(C=O)c2)C2CCN(Cc3ccccc3)CC2)cc1 | 1410 | 349 | 109%
6 | CCN(CC)C(=O)c1ccc(N(c2ccc(C(N)=O)cc2)C2CCN(Cc3ccccc3)CC2)cc1 | 193 | 15 | 
7 | CCN(CC)C(=O)c1ccc(N(c2cccc(NC(C)=O)c2)C2CCN(Cc3ccccc3)CC2)cc1 | > 5590 | 568 | 96%
8 | CCN(CC)C(=O)c1ccc(N(c2cccc(CN(C)C)c2)C2CCN(Cc3ccccc3)CC2)cc1 | 51 | 121 | 112%
9 | CCN(CC)C(=O)c1ccc(N(c2cccc(C(C)=O)c2)C2CCN(Cc3ccccc3)CC2)cc1 | 2670 | 906 | 116%
10 | CCN(CC)C(=O)c1ccc(N(c2cccc(C(C)O)c2)C2CCN(Cc3ccccc3)CC2)cc1 (stereo not drawn) | 59 | 47 | 
11 | CCN(CC)C(=O)c1ccc(N(c2cccc(C(N)=O)c2)C2CCN(Cc3ccccc3)CC2)cc1 | 2500 | 972 | 101%
12 | CCN(CC)C(=O)c1ccc(N(c2cccc(CN)c2)C2CCN(Cc3ccccc3)CC2)cc1 | 7 | 2 | 
13 | CCN(CC)C(=O)c1ccc(N(c2cccc(C(=O)NC)c2)C2CCN(Cc3ccccc3)CC2)cc1 | > 515 | 243 | 100%
14 | CCN(CC)C(=O)c1ccc(N(c2ccccc2C(N)=O)C2CCN(Cc3ccccc3)CC2)cc1 | 262 | 132 | 
15 | CCN(CC)C(=O)c1ccc(N(c2cccc(O)c2)C2CCN(Cc3ccccc3)CC2)cc1 | 1770 | 210 | 100%
16 | CCN(CC)C(=O)c1ccc(N(c2cccc(NS(C)(=O)=O)c2)C2CCN(Cc3ccccc3)CC2)cc1 | 2600 | 337 | 98%
